Measurements from patent US20230218577A1, “USE OF HEAT SHOCK PROTEIN INHIBITORS FOR THE TREATMENT OF NEURODEVELOPMENTAL DISORDERS” (The Children's Medical Center Corporation, priority 2020, published 2023).
Read-outs that look alike come from different tables or passages of the source.

Tested on: mTORC1 activity (pS6) in Tsc2-sh hippocampal neurons
Assay: mTORC1 high-content screen (mTORC1^HCA) with the Biomol collection library
[1] = Z-score of percent GFP+pS6+ neurons in compound-treated Tsc2-knockdown wells, DIV20, Biomol library, replica 1
[2] = Z-score of percent GFP+pS6+ neurons in compound-treated Tsc2-knockdown wells, DIV20, Biomol library, replica 2
[3] = Z-score of percent GFP+pS6+ neurons in compound-treated Tsc2-knockdown wells, DIV20, Biomol library screen, replica 1
[4] = Z-score of percent GFP+pS6+ neurons in compound-treated Tsc2-knockdown wells, DIV20, Biomol library screen, replica 2

Row | SMILES | T2 Zscore (Replica 1) | T2 Zscore (Replica 2) | further results
1 | C[C@@]1(CO)[C@H](O)CC[C@@]2(C)[C@H]1CC[C@H]1C[C@@H]3C[C@@]12CC[C@]3(O)CO [Aphidicolin] |  |  | T2 Zscore (Replica 1) [1]: 1.019; T2 Zscore (Replica 2) [2]: 0.8185
2 | CCCCC/C=C\C/C=C\C/C=C\C/C=C\CCCC(N)=O [Arachidonamide] | 0.02015 | 0.7927 | 
3 | CCCCC/C=C\C/C=C\C/C=C\C/C=C\CCCC(=O)O[C@H](COCCCCCCCCCCCCCCCC)COP(=O)([O-])OCC[N+](C)(C)C [Arachidonoyl-PAF] | 0.3634 | −0.7092 | 
4 | COc1cccc2c1cc([N+](=O)[O-])c1c(C(=O)O)cc3c(c12)OCO3 [Aristolochic acid] | −2.22 | −1.172 | 
5 | CCCCC/C=C\C/C=C\C/C=C\C/C=C\CCCC(=O)NCc1ccc(O)c(OC)c1 [Arvanil] | 0.6877 | −0.1154 | 
6 | CC[C@@H]1/C=C(\C)C[C@H](C)C[C@H](OC)[C@H]2O[C@@](O)(C(=O)C(=O)N3CCCC[C@H]3C(=O)O[C@H](/C(C)=C/[C@@H]3CC[C@@H](O)[C@H](OC)C3)[C@H](C)[C@@H](O)CC1=O)[C@H](C)C[C@@H]2OC [Ascomycin (FK-520)] | 1.137 | 0.2159 | 
7 | CC(C)(c1ccc(OCC2CO2)cc1)c1ccc(OCC2CO2)cc1 (stereo not shown) [BADGE] | 0.7862 | −0.784 | 
8 | CC(=O)OCOC(=O)CN(CC(=O)OCOC(C)=O)c1ccccc1OCCOc1ccccc1N(CC(=O)OCOC(C)=O)CC(=O)OCOC(C)=O [BAPTA-AM] | −0.1651 | −0.6781 | 
9 | Cc1ccc(S(=O)(=O)/C=C/C#N)cc1 [BAY 11-7082] | −1.185 | −0.6295 | 
10 | COc1ccc2c(c1)c(CC(=O)N1CCOCC1)c(C)n2C(=O)c1ccc(Cl)cc1 [BML-190] | 0.3255 | 0.1725 | 
11 | CO/C1=C\C(C)=C\[C@@H](C)[C@@H](O)[C@@H](C)C/C(C)=C/C=C/[C@H](OC)[C@@H]([C@@H](C)[C@@H](O)[C@H](C)[C@@]2(O)C[C@@H](O)[C@H](C)[C@@H](C(C)C)O2)OC1=O [Bafilomycin A1] | 0.3441 | 1.894 | 
12 | Cl.N/C(=N\C(=O)c1nc(Cl)c(N)nc1N)NCc1ccccc1 [Benzamil•HCl] | 0.1506 | −0.9416 | 
13 | CC(C)COCC(CN(Cc1ccccc1)c1ccccc1)N1CCCC1.Cl (stereo not shown) [Bepridil • HCl] |  |  | T2 Zscore (Replica 1) [3]: 0.6008; T2 Zscore (Replica 2) [4]: −0.283
14 | C=C(C)[C@@H]1CC[C@]2(C(=O)O)CC[C@]3(C)[C@H](CC[C@@H]4[C@@]5(C)CC[C@H](O)C(C)(C)[C@@H]5CC[C@]43C)[C@@H]12 [Betulinic acid] |  |  | T2 Zscore (Replica 1) [3]: 0.6326; T2 Zscore (Replica 2) [4]: 0.2486
15 | Cc1ccc2c(c1)C(=O)C1(O)CCN(c3ccccc3)C1=N2 (stereo not shown) [Blebbistatin] | −0.001023 | 0.1611 | 
16 | CO[C@H](C/C=C\C=C\CC/C=C/C[C@H](C)/C=C/C(=C\C(=O)O)CC(=O)O)/C(C)=C\C=C(/C)C(=O)O [Bongkrekic acid] | −0.2324 | 1.063 | 
17 | C[C@H]1CCC/C=C/[C@@H]2C[C@H](O)C[C@H]2[C@H](O)/C=C/C(=O)O1 [Brefeldin A] | 1.168 | −0.1747 | 
18 | O=[N+]([O-])c1cccc2c(Br)[nH]nc12 [Bromo-7-nitroindazole] |  |  | T2 Zscore (Replica 1) [3]: 0.5425; T2 Zscore (Replica 2) [4]: 1.132

Row | SMILES | T2 Zscore (Replica 1) | T2 Zscore (Replica 2) | further results
19 | CCCCNc1cc(C(=O)O)cc(S(N)(=O)=O)c1Oc1ccccc1 [Bumetanide] |  |  | T2 Zscore (Replica 1) [1]: 1.388; T2 Zscore (Replica 2) [2]: 0.7833
20 | CCCCCCCCCCCCC/C=C/[C@@H](O)[C@H](CO)NC(C)=O [C2 Ceramide] | 0.1437 | 0.8185 | 
21 | CCCCCCCCCCCCCCC[C@@H](O)[C@H](CO)NC(C)=O [C2 Dihydroceramide] | −0.1079 | −1.131 | 
22 | CCCCCCCCCCCCC/C=C/[C@@H](O)[C@H](CO)NC(=O)CCCCCCC [C8 Ceramide] | 0.0936 | 1.008 | 
23 | CCCCCCCCCCCCC/C=C/[C@@H](O)[C@H](CO)NCCCCCCCC [C8 Ceramine] | 0.4948 | 0.05838 | 
24 | CCCCCCCCCCCCCCC[C@@H](O)[C@H](CO)NC(=O)CCCCCCC [C8 Dihydroceramide] | −2.013 | −0.466 | 
25 | CCCCCCCCCCCCC/C=C/[C@@H](O)[C@H](CO)NC(=O)CCCCCCCCCCCCCCC [C16 Ceramide] | 0.9862 | 0.3004 | 
26 | CCCCCCCCCCCCCCCCOC[C@H](COP(=O)([O-])OCC[N+](C)(C)C)OC(=O)NC [C-PAF] | −0.1058 | −0.2275 | 
27 | CCCNC(=O)[C@H]1O[C@@H]1C(=O)N[C@H](C(=O)N1CCC[C@H]1C(=O)OC)[C@@H](C)CC [CA-074-Me] | 1.644 | 0.9259 | 
28 | O=C(/C=C/c1ccc(O)c(O)c1)OCCc1ccccc1 [CAPE] | 0.3791 | −0.592 | 
29 | N#C/C(=C\c1ccc(O)c(O)c1)C(=O)OC/C=C/c1ccccc1 [CDC] | 0.2338 | −0.5378 | 
30 | O=C1CSC(c2ccccc2Cl)c2cc(Cl)ccc2N1 (stereo not shown) [CGP-37157] | −0.3997 | 0.4128 | 
31 | Clc1ccc(-c2nc3sccn3c2/C=N/OCc2ccc(Cl)c(Cl)c2)cc1 [CITCO] | −0.6413 | 0.08341 | 
32 | CCCC[C@@H](C=O)NC(=O)[C@H](CC(C)C)NC(=O)OCc1ccccc1 [Calpeptin] |  |  | T2 Zscore (Replica 1) [3]: 1.453; T2 Zscore (Replica 2) [4]: 0.01864
33 | CC[C@@]1(O)C(=O)OCc2c1cc1n(c2=O)Cc2cc3ccccc3nc2-1 [Camptothecin] | −1.73 | −2.009 | 
34 | O[C@H]1[C@H](O)[C@@H](O)CN2CC[C@H](O)[C@H]12 [Castanospermine] |  |  | T2 Zscore (Replica 1) [3]: 0.1435; T2 Zscore (Replica 2) [4]: 1.758
35 | C/C=C/C/C=C/CCC(=O)[C@H]1O[C@H]1C(N)=O [Cerulenin] |  |  | T2 Zscore (Replica 1) [3]: 0.0617; T2 Zscore (Replica 2) [4]: 0.8831
